Measurements reported in patent US8076375B2 (priority 2005, dated 2011).

Legend:
[1] = system: Lck (activated F505 form); test: Lck autophosphorylation kinase assay; assay type: biochemical
[2] = at the tested doses; cited from earlier work

Cc1nn(-c2ccc(S(=O)(=O)O)cc2)c(O)c1N=Nc1ccc(-c2ccc(N=Nc3ccc4c(S(=O)(=O)O)cc(S(=O)(=O)O)c(N)c4c3O)c(O)c2)cc1O
Effect on Lck activity (in words) ([1]; 10 μM): minimally inhibited | Percent Lck activity remaining ([1]; 10 μM inhibitor): 45% | Toxic effects in mammals [2]: no toxic effects were observed
